In ChEMBL document CHEMBL5506000, “Design, synthesis and antibacterial evaluation of low toxicity amphiphilic-cephalosporin derivatives” (Eur J Med Chem, 2024):

Legend:
Staphylococcus aureus [1] = assay: Antibacterial activity against Staphylococcus aureus ATCC 29213 by CLSI protocol based assay; assay type: functional
Escherichia coli = assay: Antibacterial activity against Escherichia coli ATCC 25922 by CLSI protocol based assay; assay type: functional
[2] = Hemolytic activity in sheep RBC; assay type: toxicity, cell-based, Ovis aries, Erythrocyte; conditions: sheep red blood cells (erythrocytes)
Staphylococcus aureus [3] = assay: Antibacterial activity against Staphylococcus aureus in presence of 50% plasma; assay type: functional
Staphylococcus aureus [4] = assay: Antibacterial activity against Staphylococcus aureus in presence of 50% serum; assay type: functional
Staphylococcus aureus [5] = assay: Antibacterial activity against Staphylococcus aureus measured after 3 hrs in presence of 50% plasma; assay type: functional
Staphylococcus aureus [6] = assay: Antibacterial activity against Staphylococcus aureus measured after 6 hrs in presence of 50% plasma; assay type: functional

CC[C@H](C)[C@H](NC(=O)CN)C(=O)NCC(=O)N[C@@H](C)C(=O)N[C@H](C(=O)N[C@@H](CC(C)C)C(=O)N[C@@H](CCCCN)C(=O)N[C@H](C(=O)N[C@@H](CC(C)C)C(=O)N[C@H](C(=O)N[C@H](C(=O)NCC(=O)N[C@@H](CC(C)C)C(=O)N1CCC[C@H]1C(=O)N[C@@H](C)C(=O)N[C@@H](CC(C)C)C(=O)N[C@H](C(=O)N[C@@H](CO)C(=O)N[C@@H](Cc1c[nH]c2ccccc12)C(=O)N[C@H](C(=O)N[C@@H](CCCCN)C(=O)N[C@@H](CCCNC(=N)N)C(=O)N[C@@H](CCCCN)C(=O)N[C@@H](CCCNC(=N)N)C(=O)N[C@@H](CCC(N)=O)C(=O)N[C@@H](CCC(N)=O)C(N)=O)[C@@H](C)CC)[C@@H](C)CC)[C@@H](C)O)[C@@H](C)O)C(C)C)C(C)C [MELITTIN]
4 µg/mL: MIC (Staphylococcus aureus [1]) | MIC (Escherichia coli) | HC50 [2]
> 128 µg/mL: MIC (Staphylococcus aureus [3]) | MIC (Staphylococcus aureus [4]) | MIC (Staphylococcus aureus [5]) | MIC (Staphylococcus aureus [6])
